In PubChem BioAssay AID488965 (Broad Institute, 2010) one finds inhibition data, which are given here for 61 compounds.

Each structure is given as a SMILES string. The list shows a part of the results, in another mix than the full data. The source made the active and inactive calls. Rule as the data show it: active = inhibition above about 30% (passing the limit was not always enough); inconclusive = no clear call, values can overlap the other calls.

The test system of this assay is PvdQ acylase [Pseudomonas aeruginosa LESB58]. The assay is described as follows: P. aeruginosa PvdQ acylase inhibitors, primary screen, biochemical, fluorescence, plate reader and imaging, single point (AID 488965).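 Also: 0% = vehicle neutral wells and 100% = reference inhibitor wells.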 The note with it: purified PvdQ acylase, at 10 µM, active compounds read high.
Usually inhibition stands for the drop in the measured response relative to a control, in per cent. As for `Cc1cc(=O)[nH]c(N[N+](=O)[O-])n1`, the inhibition is inactive: 4.8%.

Regarding `O=C(OC1CN2CCC1CC2)C12CC3CC(CC(C3)C1)C2` (stereo unspecified), the inhibition was inactive: -18.6%.

Take `O=[N+]([O-])c1cc([N+](=O)[O-])c(-c2ccn[nH]2)s1`: the inhibition is inactive: 6.18%.

In the case of `CC(C)NC(=O)NP(=O)(Oc1ccccc1)Oc1ccccc1`, the inhibition was inactive: -3.09%.

For the compound `CCN(CC)C(=S)SC(NC=O)C(Cl)(Cl)Cl` (stereo unspecified), the inhibition is inactive: -8.62%.

Regarding `O=C(OC1CN2CCC1CC2)c1cccc2[nH]cnc12` (stereo unspecified), the inhibition is inactive: -2.28%.

For `ClCCSc1nnc(-c2cccnc2)o1`, the inhibition was inactive: -10.3%.

Take `COC(=O)C1(C)COP(=O)(N2CCCCCC2)OC1` (stereo unspecified): the inhibition was inactive: -12.7%.

Regarding `CC(C)c1ccc(OP(=O)(Nc2ccccn2)Oc2ccccc2F)cc1` (stereo unspecified), the inhibition was inactive: 3.99%.

As to `Cc1ccc(OP(=O)(Nc2ccc([N+](=O)[O-])cn2)Oc2ccc(C)cc2)cc1`, the inhibition was inactive: 25.4%.

Consider `Cc1ccc2nc3c(c(C)c2c1)CC(C(Cl)Cl)S3` (stereo unspecified), for which the inhibition is inactive: -11.4%.

With `O=[N+]([O-])c1ccc(-c2cc([N+](=O)[O-])c(O)c([N+](=O)[O-])c2)cc1`, the inhibition was inactive: 13.7%.

Regarding `COc1cc(C(=O)NCC2(N3CCOCC3)CCCCC2)ccc1OCC(C)C`, the inhibition is inactive: 1.51%.

`C[As](=O)(O)c1cccc(C(=O)O)c1`: the inhibition was inactive: -22.7%.

Take `O=[As](O)(c1ccc(O)cc1)c1ccccc1O`: the inhibition is inactive: -11.9%.

Turning to `CCOP1(=S)c2c(C)nn(CCC#N)c2N=C(c2ccc(F)cc2)N1C` (stereo unspecified), the inhibition is inactive: 1.33%.

As to `CN(C(=O)Cc1ccccc1)[C@@H]1CC[C@]2(CCCO2)C[C@H]1N1CCCC1`, the inhibition is inactive: -12.5%.

As to `N#CCCN(C(=O)COC(=O)C(O)(c1ccccc1)c1ccccc1)c1ccc(F)cc1`, the inhibition is inactive: 1.33%.

Consider `CN(C(=O)Cc1ccc(Cl)c(Cl)c1)[C@H]1CC[C@@]2(CCCO2)C[C@@H]1N1CCCC1`, for which the inhibition was inactive: -7.69%.

For `O=[N+]([O-])c1ccc2c(c1)nnn2O`, the inhibition is inactive: 7.42%.

Take `CN(C)C(=O)c1cc([N+](=O)[O-])cc2c1-c1c(cc([N+](=O)[O-])cc1[N+](=O)[O-])C2=O`: the inhibition is inactive: 1.38%.

For the compound `NC(=O)Nc1ccc([As](=O)(O)O)cc1`, the inhibition is inactive: -1.49%.

With `Nc1ccccc1[As](=O)(O)c1ccccc1`, the inhibition is inactive: 7.96%.

As to `O=C(O)COc1ccc([As](=O)(O)O)cc1[N+](=O)[O-]`, the inhibition is inactive: 14.8%.

Take `O=P(Nc1nccs1)(Oc1ccccc1)Oc1ccccc1`: the inhibition is inactive: 0.264%.

With `O=P(Nc1nccs1)(c1ccccc1)c1nc2ccccc2s1` (stereo unspecified), the inhibition was inactive: -8.16%.

Turning to `CCOP1(=S)c2c(C)nn(CCC#N)c2N=C(c2ccccc2F)N1C` (stereo unspecified), the inhibition was inactive: -8.41%.

On to `CS(=O)(=O)c1cc([N+](=O)[O-])c2no[n+]([O-])c2c1`, for which the inhibition was inactive: -7.19%.

Take `CCOP(=O)(Nc1cccc2ccccc12)OCC`: the inhibition is inactive: 5.25%.

`COc1cc(C2NCCC3(OCCO3)C2(C)C)cc(OC)c1OC` (stereo unspecified): the inhibition is inactive: -17.3%.

On to `Cc1ccc(NCCc2c([N+](=O)[O-])cc([N+](=O)[O-])cc2[N+](=O)[O-])cc1`, for which the inhibition is inactive: -10.5%.

`Nc1cccc2c([As](=O)(O)O)cccc12`: the inhibition is inactive: -14.9%.

On to `CCCOP(=S)(Nc1nc(N)cc(=O)[nH]1)OCCC`, for which the inhibition was inactive: -10.2%.

Turning to `Cc1cccc(OCC(=O)OC2CN3CCC2CC3)c1` (stereo unspecified), the inhibition is inactive: 2.22%.

On to `O=[As](O)(c1cccc(O)c1)c1cccc(O)c1`, for which the inhibition was inactive: 1.29%.

As for `O=C(OC1CN2CCC1CC2)c1ccc(Cl)cc1` (stereo unspecified), the inhibition is inactive: -3.82%.

With `CS(=O)(=O)c1ccc(Cl)c(NC(=O)COC(=O)C(O)(c2ccccc2)c2ccccc2)c1`, the inhibition is inactive: -9.43%.

In the case of `O=[As](O)(O)c1cccnc1`, the inhibition is inactive: -15.5%.

As to `COc1cc(C(=O)NCC2(N3CCOCC3)CCCCC2)cc(Cl)c1OC(C)C`, the inhibition is inactive: -5.31%.

On to `CC(C)/C=N\N=C(\N)N[N+](=O)[O-]`, for which the inhibition is inactive: -14.8%.

Regarding `CN(C(=O)Cc1ccc(Cl)c(Cl)c1)[C@@H]1CCCC[C@H]1N1CCCC1`, the inhibition is inactive: -12%.

Regarding `CC1(CBr)Cn2c(nc3ccccc3c2=O)S1` (stereo unspecified), the inhibition was inactive: -13%.

On to `COc1ccccc1CNC(=O)COC(=O)C(O)(c1ccccc1)c1ccccc1`, for which the inhibition is inactive: -9.43%.

With `CC(C)(C)C(=O)NC(Sc1ncccn1)C(Cl)(Cl)Cl` (stereo unspecified), the inhibition was inactive: -1.46%.

Turning to `Clc1n[nH]nc1-c1nn[nH][15n]1`, the inhibition is inactive: 4.99%.

`CCOP(=O)(NC(=NC(C)c1ccccc1)NC(C)c1ccccc1)OCC` (stereo unspecified): the inhibition is inactive: -0.959%.

Consider `O=P1(Nc2ccccn2)COc2ccccc2OC1`, for which the inhibition is inactive: 0.583%.

As to `CCC1=CC2Cc3nc4ccc(Cl)cc4c(N)c3C(C1)C2` (stereo unspecified), the inhibition is inactive: 7.6%.

Turning to `CCOP(=O)(Nc1ccc(C)cn1)OCC`, the inhibition was inactive: -17.7%.

Regarding `Nc1cccc([As](=O)(O)c2ccccc2)c1`, the inhibition is inactive: -4.46%.

Turning to `Cc1ccc(OCC(=O)OC2CN3CCC2CC3)cc1` (stereo unspecified), the inhibition is inactive: -13%.

For `O=[As](O)(c1cccs1)c1cccs1`, the inhibition was inactive: -3.03%.

`O=P1(Nc2ccc(Br)cn2)COc2ccccc2OC1`: the inhibition is inactive: -17.2%.

`NS(=O)(=O)c1cccc(NC(=O)COC(=O)C(O)(c2ccccc2)c2ccccc2)c1`: the inhibition was inactive: -10.8%.

For `O=P1(Nc2ncccn2)COc2ccccc2OC1`, the inhibition is inactive: -8.59%.

Consider `CN(C)C1(CNC(=O)c2ccc(S(C)(=O)=O)cc2)CCCCC1`, for which the inhibition is inactive: 1.2%.

Turning to `CCCC1OP(=O)(Nc2ccccc2)OCC1CC` (stereo unspecified), the inhibition is inactive: -1.44%.

As for `O=C(/C=C/c1ccccc1)OC1CN2CCC1CC2` (stereo unspecified), the inhibition was inactive: -15.4%.

As to `CC1CCC(C(C)C)C(OP(=O)(Nc2ccccn2)c2ccccc2)C1` (stereo unspecified), the inhibition is inactive: 8.41%.

With `Cc1ccc(C(=O)OC2CN3CCC2CC3)cc1` (stereo unspecified), the inhibition was inactive: 2.03%.

Consider `Cc1nn(-c2ccccc2)c2c1P(=O)(N1CCOCC1)N(C)C(c1ccccc1)=N2` (stereo unspecified), for which the inhibition was inactive: 7.01%.
